Reference: PubChem BioAssay AID602248 (The Scripps Research Institute Molecular Screening Center, 2012)
The entries are a selection whose mix differs from that of the whole data set. The source made the active and inactive calls. Rule as the data show it: active = activation above about 15%; inactive = the rest.

Assay: counter-screen for M1 agonists: effect in parental CHO-K1 cells (AID 602248);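 also: untransfected CHO-K1 host cells lacking M1 receptor as counterscreen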
Details: Fluo-8 calcium fluorescence, at 3 µM, hits give high values, scaled to maximal ATP response, vehicle zero

SMILES	activation
O=C(OC1CN2CCC1CC2)c1cccc(Cl)c1 (stereo not drawn)	inactive: 1.15%
Nc1ccc([As](=O)(O)c2ccc([N+](=O)[O-])cc2)cc1	inactive: -0.09%
C(Cc1nn[nH]n1)Cc1nn[nH]n1	inactive: 0.47%
O=[As](O)(c1ccccc1)c1ccc(O)cc1	inactive: -0.22%
O=[N+]([O-])c1ncn(CCn2cnc([N+](=O)[O-])n2)n1	inactive: -0.1%
CC(=O)NC(SC(=S)N(C)C)C(Cl)(Cl)Cl (stereo not drawn)	inactive: 0.36%
O=[N+]([O-])c1ccc(O)c(/C=N/Nc2ccc([N+](=O)[O-])cc2[N+](=O)[O-])c1	inactive: 1.16%
CC1C(=O)OC2CCN3CC4OC4(COC(=O)C(C)(O)C1(C)O)C23 (stereo not drawn)	inactive: 1.09%
O=P1(N(CCCl)CCCl)OCCC2CCCCN21 (stereo not drawn)	inactive: -0.26%
Cc1ccc(NP(=O)(Oc2cccc(C)c2)Oc2cccc(C)c2)nc1	inactive: 1.02%
C=C1C(=O)OC2CCN3CC=C(COC(=O)C(C)(O)C4(CO4)C1C)C23 (stereo not drawn)	inactive: 0.15%
c1ccc(-c2nn[nH]n2)c(-c2nn[nH]n2)c1	inactive: 0.68%
O=C(NC1CCS(=O)(=O)C1)NP(=S)(Oc1ccccc1)Oc1ccccc1 (stereo not drawn)	inactive: -0.21%
CCNC(=S)/N=C(\N)N[N+](=O)[O-]	inactive: 0.7%
CN(C)C(=O)Oc1noc2ccccc12	inactive: 0.09%
O=c1c2cc([N+](=O)[O-])ccc2[nH]c2c([N+](=O)[O-])cc([N+](=O)[O-])cc12	inactive: 6.88%
Cc1ccccc1OP(=O)(Nc1ccccn1)Oc1ccccc1C	inactive: 6.43%
CC(NC(=O)COC(=O)C(O)(c1ccccc1)c1ccccc1)c1ccccc1 (stereo not drawn)	inactive: 4.34%
CCN(C(=O)COC(=O)C(O)(c1ccccc1)c1ccccc1)c1c(N)n(Cc2ccccc2)c(=O)[nH]c1=O	inactive: 0.02%
Clc1ccc(N2CCN(Cc3c[nH]c4ncccc34)CC2)cc1	inactive: 2.1%
CCC(=O)N1C2C3N(C(=O)CC)C1C1N(C(=O)CC)C(C(N1C(=O)CC)N3C(=O)CC)N2C(=O)CC	inactive: 0.66%

SMILES	activation
O=C(OC1CN2CCC1CC2)c1ccccc1 (stereo not drawn)	inactive: 1.62%
Cc1ccc(OP(=O)(Nc2ccccn2)Oc2ccc(C)cc2)cc1	inactive: 6.3%
CC(=O)NC(SC(=S)N(CC(C)C)CC(C)C)C(Cl)(Cl)Cl (stereo not drawn)	inactive: 0.25%
COC(=O)c1cc2c(s1)N=C(c1ccccc1)N(C)P2(=O)N1CCOCC1 (stereo not drawn)	inactive: 0.39%
CC(C)(C)C(=O)NC(Sc1ccccc1)C(Cl)(Cl)Cl (stereo not drawn)	inactive: -0.04%
CCc1cc(O)c([N+](=O)[O-])c(C)c1[N+](=O)[O-]	inactive: 2.61%
CCOc1ccc(C2=NCC(CBr)S2)cc1 (stereo not drawn)	inactive: 0.6%
O=P1(Nc2nc3ccc(Cl)cc3s2)COc2ccccc2O1 (stereo not drawn)	inactive: 0.18%
CC(=O)Nc1ccc(Oc2c([N+](=O)[O-])cc([N+](=O)[O-])cc2[N+](=O)[O-])cc1	inactive: 1.35%
CC(=O)Nc1ccc([As](=O)(O)O)c(O)c1	inactive: 2.48%
C[C@@H]1C=CCP(=O)(Oc2ccccc2)O1 (stereo partly drawn)	inactive: 0.43%
C[C@H]1OP(=O)(Oc2ccccc2)C[C@@H]2O[C@@H]21 (stereo partly drawn)	inactive: 0.09%
CCN(CC)CCOC(=O)C(O)(c1ccccc1)c1ccccc1	inactive: 0.01%
Cc1ccccc1CN(C)C(=O)COC(=O)C(O)(c1ccccc1)c1ccccc1	inactive: 1.35%
CC1C(=O)OC2CCN3CC=C(COC(=O)C(C)(O)C1(C)O)C23 (stereo not drawn)	inactive: -0.2%
COC(=O)C1(C)COP(=O)(NCc2ccccc2)OC1 (stereo not drawn)	inactive: 0.08%
N#C/C(=C\c1ccc(N(CCBr)CCBr)cc1)C(N)=O	inactive: 0.86%
CC(=O)c1ccc(N2CC2c2ccncc2)cc1 (stereo not drawn)	inactive: 0.6%
Clc1ccc(Cl)c(NC2=NCC(CBr)S2)c1 (stereo not drawn)	inactive: 0%
CN1CCCC(OC(=O)C(c2ccccc2)c2ccccc2)C1 (stereo not drawn)	inactive: -0.05%
Cc1ccc(OP(=O)(Nc2nccs2)Oc2ccc(C)cc2)cc1	inactive: 2.01%

SMILES	activation
CC(C)[C@H]1C(=O)O[C@@H]2CCN3CC=C(COC(=O)[C@](C)(O)[C@]1(C)O)[C@H]23	inactive: 1.43%
COc1ccccc1OP(=O)(Nc1ccc(C)cn1)Oc1ccccc1OC	inactive: 1.19%
Cc1ccc(N/C(=N/P(=O)(N2CCOCC2)N2CCOCC2)N2CCOCC2)cc1	inactive: -0.41%
CN(C(=O)Cc1ccc(Cl)c(Cl)c1)[C@H]1CCCC[C@H]1N1CCCC1	inactive: 0.43%
NC(=O)c1cc([N+](=O)[O-])cc([N+](=O)[O-])c1N	inactive: 0.63%
O=[N+]([O-])C1C(O)C(O)C([N+](=O)[O-])C(O)C1O (stereo not drawn)	inactive: 1.26%
O=C(NC(Sc1ccncn1)C(Cl)(Cl)Cl)c1ccccc1 (stereo not drawn)	inactive: 0.71%
Oc1ccccc1CNc1ccccn1	inactive: 0.97%
CC(C)CC(=O)NC(Sc1ccc(Cl)cc1)C(Cl)(Cl)Cl (stereo not drawn)	inactive: -0.77%
Nc1cc(N)c2nonc2c1[N+](=O)[O-]	inactive: 0.35%
CN(C(=O)Cc1ccc(Cl)c(Cl)c1)[C@H]1CCCC[C@@H]1N1CCCC1	inactive: 0.56%
Cc1ccc(NP(=O)(Oc2ccccc2F)Oc2ccccc2F)nc1	inactive: 4.87%
CCOP(=O)(Nc1ccccc1)OCC	inactive: -0.14%
Cc1cc(SC(NC(=O)c2ccc(F)cc2)C(Cl)(Cl)Cl)ncn1 (stereo not drawn)	inactive: 0.59%
CN(C)P(=O)(N(C)C)n1c(Nc2ccccc2)nnc1-c1ccccc1	inactive: 0.03%
O=P(Nc1nc2ccc(Cl)cc2s1)(c1ccccc1)c1ccccc1	inactive: 5.07%
CC(=O)O[C@]1(C)C(=O)OC/C2=C/CN(C)CCC(OC(=O)[C@@](O)(C(C)O)C[C@H]1C)C2=O (stereo partly drawn)	inactive: 0.22%
CCCC1OP(N)(=O)OCC1CC (stereo not drawn)	inactive: 1.3%
O=C(O)c1ccccc1[As](=O)(O)O	inactive: -0.12%
CC(=O)Nc1ccc([As](=O)(O)O)cc1	inactive: 0.46%
Nc1cccc2ccc([As](=O)(O)O)cc12	inactive: -0.08%
